From patent publication US12331037B2, “Pyrimidines as EGFR-inhibitors and methods of treating disorders” (Dana-Farber Cancer Institute, Inc., priority 2014, dated 2025)
Like-named read-outs stand apart in the source and are kept apart here.

Experiments:
Ba/F3 EGFR L858R/L844V = experiment: Ba/F3 cell proliferation (MTS) assay; type: cell-based, murine; conditions: Mus musculus
[1] = test system: Ba/F3 EGFR DEL/T790M/L844V; experiment: Ba/F3 cell proliferation (MTS) assay; type: cell-based, murine; conditions: Mus musculus
[2] = Ba/F3, EGFR L858R/L844V, 72 hours, MTS, read-out: IC50
[3] = Ba/F3, EGFR DEL/T790M/L844V, 72 hours, MTS, read-out: IC50

| IC50 (Ba/F3 EGFR L858R/L844V; [2]) [nM] | IC50 [1, 3] [nM] | Compound | IC50 (Ba/F3 EGFR L858R/L844V; Ba/F3 EGFR, 72 h) [nM] | IC50 ([1]; Ba/F3 EGFR, 72 h) [nM] |
| --- | --- | --- | --- | --- |
|  |  | C=CC(=O)Nc1cc(Nc2nccc(-c3cn(C)c4ccccc34)n2)c(OC)cc1N(C)CCN(C)C [AZD9291] | 29.2 | 21.6 |
| 283 | 89 | C=CC(=O)Nc1cc(Nc2nccc(-n3ccc4cccnc43)n2)c(OC)cc1N(C)CCN(C)C [Compound I-1, N-(5-((4-(1H-pyrrolo[2,3-b]pyridin-1-yl)pyrimidin-2-yl)amino)-2-((2-(dimethylamino)ethyl)(methyl)amino)-4-methoxyphenyl)acrylamide] |  |  |
| 860 | 822 | C=CC(=O)Nc1cccc(Oc2nc(Nc3ccc(N4CCN(C)CC4)cc3OC)ncc2Cl)c1 [WZ4002] |  |  |
